# Experimental data: patent US6326390A (King Pharmaceuticals Reseach and Development, Inc., priority 1999, dated 2001)
# Protein sequences, listed by entry. Tags and fused reporters are not part of them. Lines headed by an entry give the natural chain unless they say otherwise; changes in a name come on top.
# UniProt P0DMS8, whole entry: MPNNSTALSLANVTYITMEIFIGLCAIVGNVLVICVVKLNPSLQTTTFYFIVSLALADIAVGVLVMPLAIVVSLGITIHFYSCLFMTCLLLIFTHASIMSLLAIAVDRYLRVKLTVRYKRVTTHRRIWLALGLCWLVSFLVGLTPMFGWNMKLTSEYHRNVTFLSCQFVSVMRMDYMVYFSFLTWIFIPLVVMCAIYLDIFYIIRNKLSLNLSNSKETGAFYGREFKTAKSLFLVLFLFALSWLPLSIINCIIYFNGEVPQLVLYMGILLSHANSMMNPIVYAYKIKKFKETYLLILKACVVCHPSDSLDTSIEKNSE
# UniProt P30543, whole entry: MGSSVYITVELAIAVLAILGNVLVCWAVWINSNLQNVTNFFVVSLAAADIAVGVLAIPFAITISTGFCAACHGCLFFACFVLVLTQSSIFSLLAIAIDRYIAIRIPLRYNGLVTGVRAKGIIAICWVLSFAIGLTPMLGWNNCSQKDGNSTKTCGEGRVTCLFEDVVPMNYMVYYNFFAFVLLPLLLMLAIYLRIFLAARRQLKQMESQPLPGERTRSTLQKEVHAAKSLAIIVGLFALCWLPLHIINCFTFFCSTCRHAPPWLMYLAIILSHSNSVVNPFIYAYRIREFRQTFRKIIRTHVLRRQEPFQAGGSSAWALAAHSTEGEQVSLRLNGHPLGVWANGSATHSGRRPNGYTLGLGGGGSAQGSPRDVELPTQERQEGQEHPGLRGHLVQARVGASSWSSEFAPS
# Tests used:
# [1] = target: human A3 adenosine receptor (Homo sapiens, UniProt P0DMS8)
# [2] = target: T1, adenosine A3 receptors in Jurkat cell membranes (Homo sapiens, UniProt P0DMS8); assay: Saturation of Compound 1 binding to A3 receptors in Jurkat cell membranes; settings: 0.2 to 15 nM, n=3
# T1 construct: characterization of A3 receptors in some human tumor cell lines; endogenous in cells; host or cells: Jurkat (human T-cell leukaemia), membranes
# From the text: (§1) FIGS. 3 and 4 are graphs showing the saturation of the binding of a tritiated analogue of 5-[[(4-Methoxyphenyl)amino]carbonyl]amino-8-propyl-2-(2-furyl)-pyrazolo[4,3-e] 1,2,4-triazolo[1,5-c]pyrimidine (Compound 1) (fmol/mg protein) to A3 receptors expressed in the JURKAT cell line versus the molar concentration of compound 1. […] For example, approximately 1300 fmol/mg protein was detected in Jurkat cells and 650 fmol/mg protein was detected in HL60 cells. […] These findings have facilitated the determination of the presence of A3 receptors in many human tumors.
# (§2) The following experiments described for the first time, the characterization of A3 receptors in some human tumor cell lines such as HL60, a promyelocytic human leukaemia and Jurkat, a human T-cell leukaemia, by using the selective antagonist (Compound 1) described herein. In these studies, membranes (0.5 mg protein/ml) from Jurkat and HL60 cells were incubated with 10-12 different concentrations of the compound described above ranging from 0.2 to 15 nM and 0.1 to 10 nM for Jurkat and HL60 cells, respectively.
# [3] = target: rat A2A adenosine receptor (striatum membranes) (Rattus norvegicus, UniProt P30543); settings: read-out: rA2A (Ki), [^3 H]SCH58261 0.2 nM, 1,658-2,397 in parentheses on next line
# [4] = target: T2, adenosine A3 receptors in HL60 membranes (Homo sapiens, UniProt P0DMS8); assay: Saturation of Compound 1 binding to A3 receptors in HL60 membranes; settings: 0.1 to 10 nM, n=3
# T2 construct: characterization of A3 receptors in some human tumor cell lines; endogenous in cells; host or cells: HL60 (human promyelocytic leukaemia), membranes
# From the text: as §1, §2
smiles,measurement,setting,value
"CCCn1cc2c(nc(NC(=O)Nc3ccc(OC)cc3)n3nc(-c4ccco4)nc23)n1 [Compound 1, 5-[[(4-Methoxyphenyl)amino]carbonyl]amino-8-propyl-2-(2-furyl)-pyrazolo[4,3-e] 1,2,4-triazolo[1,5-c]pyrimidine]",affinity and selectivity for the human adenosine A3 receptor subtype,[1]; in words,relatively high affinity and selectivity
same,rA1 /hA3,"[1]; ratio of Ki values, rat A1 over human A3","> 34,482"
same,rA2A /hA3,"[1]; ratio of Ki values, rat A2A over human A3","6,872"
same,Ki,"[1]; read-out: hA3 (Ki), HEK-293 cells transfected with human recombinant A3, [^125 I]AB-MECA, (0.27-0.32) on next line",0.29 nM
same,Kd,[2],1.9 ± 0.2 nM
same,Ki,[3],1990 nM
same,Kd,[4],1.2 ± 0.1 nM
